Values quoted from earlier work as cited in patent publication US10633374B2, “Small molecule based antibody-recruiting compounds for cancer treatment” (YALE UNIVERSITY, priority 2015, dated 2020).

Chains of the proteins cited; added tags and fusions are not shown. Residues count along the entry.
UniProt Q03405, 23-305 limits assumed: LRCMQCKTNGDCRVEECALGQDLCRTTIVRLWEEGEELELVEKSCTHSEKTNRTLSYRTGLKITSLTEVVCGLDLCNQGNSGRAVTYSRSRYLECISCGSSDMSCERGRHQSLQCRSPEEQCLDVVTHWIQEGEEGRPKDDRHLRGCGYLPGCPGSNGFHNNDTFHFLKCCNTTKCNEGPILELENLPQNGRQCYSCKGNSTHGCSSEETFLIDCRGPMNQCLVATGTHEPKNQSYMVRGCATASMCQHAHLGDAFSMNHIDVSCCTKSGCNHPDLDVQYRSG

Molecular target: uPAR (Homo sapiens, UniProt Q03405)
Settings: in vitro; cited from earlier work

Compound: O=C(O)c1cccc(Nc2cc(N3CCCCCC3)c3noc4c3c2C(=O)c2ccccc2-4)c1
- affinity for uPAR (literature): triple digit nM affinity
